According to US20240374573A1, “IMIDAZOLE CONTAINING COMPOUNDS, DERIVATIVES THEREFORE, AND USES THEREOF” (AglaeaPharma Inc., priority 2023, published 2024):
Where two headings read alike, the source gives them in different places.

Sequences of proteins named here, by UniProt entry; tags and fusion partners are left off.
UniProt P08913, whole entry: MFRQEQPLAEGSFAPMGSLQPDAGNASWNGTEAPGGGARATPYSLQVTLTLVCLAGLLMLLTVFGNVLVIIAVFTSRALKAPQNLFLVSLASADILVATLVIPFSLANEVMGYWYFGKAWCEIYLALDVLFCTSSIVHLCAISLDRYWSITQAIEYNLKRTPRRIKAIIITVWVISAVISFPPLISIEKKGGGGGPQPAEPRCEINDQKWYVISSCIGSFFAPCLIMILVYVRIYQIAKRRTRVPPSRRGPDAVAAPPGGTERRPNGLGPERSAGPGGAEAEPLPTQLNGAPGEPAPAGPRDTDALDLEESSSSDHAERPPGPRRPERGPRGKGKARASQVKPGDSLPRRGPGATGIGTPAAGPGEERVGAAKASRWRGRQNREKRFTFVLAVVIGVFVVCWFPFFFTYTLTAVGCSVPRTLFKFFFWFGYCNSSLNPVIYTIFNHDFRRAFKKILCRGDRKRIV
UniProt P08183, whole entry: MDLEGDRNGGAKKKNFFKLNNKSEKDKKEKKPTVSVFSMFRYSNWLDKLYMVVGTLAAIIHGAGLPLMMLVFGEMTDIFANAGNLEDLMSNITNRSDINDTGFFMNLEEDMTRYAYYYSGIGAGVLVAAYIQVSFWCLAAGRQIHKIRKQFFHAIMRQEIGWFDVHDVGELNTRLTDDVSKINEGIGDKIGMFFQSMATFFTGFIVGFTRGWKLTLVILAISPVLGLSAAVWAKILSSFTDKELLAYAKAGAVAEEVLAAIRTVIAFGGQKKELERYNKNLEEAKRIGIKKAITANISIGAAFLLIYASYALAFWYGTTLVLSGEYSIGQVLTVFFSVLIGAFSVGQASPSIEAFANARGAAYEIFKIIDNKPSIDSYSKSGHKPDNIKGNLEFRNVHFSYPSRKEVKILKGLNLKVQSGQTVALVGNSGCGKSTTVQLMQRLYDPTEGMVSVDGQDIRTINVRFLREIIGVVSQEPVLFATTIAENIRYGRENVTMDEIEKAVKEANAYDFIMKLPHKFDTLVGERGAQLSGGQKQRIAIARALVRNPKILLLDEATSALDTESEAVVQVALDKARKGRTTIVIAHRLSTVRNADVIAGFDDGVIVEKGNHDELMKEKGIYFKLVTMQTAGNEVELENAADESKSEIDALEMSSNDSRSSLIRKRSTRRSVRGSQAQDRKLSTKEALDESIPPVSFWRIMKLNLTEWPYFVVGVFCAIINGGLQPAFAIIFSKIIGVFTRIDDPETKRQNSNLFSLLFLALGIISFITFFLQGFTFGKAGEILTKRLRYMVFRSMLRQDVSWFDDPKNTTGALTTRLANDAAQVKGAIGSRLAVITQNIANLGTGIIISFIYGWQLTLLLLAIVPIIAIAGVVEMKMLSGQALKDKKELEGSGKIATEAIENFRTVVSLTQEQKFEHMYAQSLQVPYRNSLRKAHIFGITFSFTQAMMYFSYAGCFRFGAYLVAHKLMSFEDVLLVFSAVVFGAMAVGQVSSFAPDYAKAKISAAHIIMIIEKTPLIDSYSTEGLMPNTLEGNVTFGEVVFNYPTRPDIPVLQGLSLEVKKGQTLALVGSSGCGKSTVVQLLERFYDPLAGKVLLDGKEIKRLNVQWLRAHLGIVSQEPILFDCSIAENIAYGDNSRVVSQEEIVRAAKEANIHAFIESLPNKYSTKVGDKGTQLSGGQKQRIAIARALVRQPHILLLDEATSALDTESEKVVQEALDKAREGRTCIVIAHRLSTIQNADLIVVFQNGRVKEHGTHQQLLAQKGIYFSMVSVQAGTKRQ

Key:
α2AAR = α2AAR (Homo sapiens, UniProt P08913); test: α2AAR binding assay ([3H]-RX 821002 radioligand); settings: read-out: α2A affinity (Ki), [3H]-RX 821002 0.5 nM, HEK293 membranes
P-glycoprotein (P-gp) = P-glycoprotein (P-gp) (Homo sapiens, UniProt P08183); settings: tested form: HCl
[1] = target: α2AAR (α2A-adrenergic receptor) (Homo sapiens, UniProt P08913); test: α2AAR FLIPR assay (agonist activity); type: cell-based
[2] = read-out: α2A agonist activity (EC50), α2AAR cell line hosted in HEK293 cells, tested form: TFA

| SMILES | Ki (α2AAR; tested form: HCl) [nM] | efflux ratio (P-glycoprotein (P-gp)) | EC50 ([1]; read-out: α2A agonist activity (EC50), α2AAR cell line hosted in HEK293 cells, tested form: HCl) [nM] | Ki (α2AAR; tested form: TFA) [nM] | EC50 [1, 2] [nM] |
| --- | --- | --- | --- | --- | --- |
| Cc1cccc(C(Cc2ccc(NC(=O)C3CCOCC3)cc2)c2c[nH]cn2)c1C (centres unmarked) [compound 157] | < 10 | 10.8 | 10 to 50 | – | – |
| Cc1cccc(C(c2cccc(NC(=O)CC3CCOC3)c2)c2c[nH]cn2)c1C (single isomer, unassigned) | – | – | – | < 10 | 10 to 50 |
| Cc1cccc(C(c2cccc(NC(=O)CCN3CCCCC3)c2)c2c[nH]cn2)c1C (centres unmarked) | – | – | – | < 10 | 10 to 50 |
| CONC(=O)c1ccc2c(c1)C(C(NC1=NCCS1)c1ccccc1OC)CC2 (centres unmarked) | 10 to 50 | – | – | – | – |
| COCC(=O)Nc1ccc(CC(c2c[nH]cn2)c2cccc(C)c2C)cc1 (centres unmarked) [compound 195] | – | – | – | 50 to 250 | 50 to 250 |
| Cc1cccc(C(CCc2cccc(NS(C)(=O)=O)c2)c2c[nH]cn2)c1C (centres unmarked) | – | – | – | 50 to 250 | – |
